Assay results published in ChEMBL document CHEMBL1140088, “N9-substituted 2,4-diaminoquinazolines: synthesis and biological evaluation of lipophilic inhibitors of pneumocystis carinii and toxoplasma gondii dihydrofolate reductase” (J Med Chem, 2008).

Molecular target: T1, Dihydrofolate reductase (Mycobacterium avium, UniProt O30463)
T1 sequence (O30463 whole entry): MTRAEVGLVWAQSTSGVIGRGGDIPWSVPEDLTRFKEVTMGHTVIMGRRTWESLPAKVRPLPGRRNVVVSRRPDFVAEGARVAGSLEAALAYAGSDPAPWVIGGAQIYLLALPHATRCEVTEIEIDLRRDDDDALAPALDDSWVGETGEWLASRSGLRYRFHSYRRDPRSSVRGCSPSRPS
Experiment: Inhibition of Mycobacterium avium dihydrofolate reductase

**Q.** Which IC50 does the source give for `CCN(Cc1ccccc1)c1ccc2nc(N)nc(N)c2c1` here?
**A.** The IC50 was 1.1 nM.
